The entries are a selection whose mix differs from that of the whole data set. Records with an inconclusive call do not appear. For part of these data: Entries with a potency or affinity are not part of this list. The source made the active and inactive calls. Unless noted, the call rests on the fitted dose curve; in most records, active means well fitted curve in the direction sought with a large enough effect; inconclusive means small, poorly fitted or top-dose-only effect, or another doubt; inactive means no such curve, though single readings can be large; an effect the other way counts as inactive or inconclusive.
Legend:
[1] = molecular target: Ubiquitin carboxyl-terminal hydrolase 1 (Homo sapiens) (UniProt O94782); assay: Inhibitors of USP1/UAF1: Pilot qHTS (AID 504865); conditions: purified USP1/UAF1, Ub-rhodamine cleavage fluorescence; at 114 µM (top of the series);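 further: rhodamine fluorescence freed from ubiquitin-rhodamine substrate followed over time; top concentration of the series differs between compounds; on the % scale 0 is the no-effect control and ±100 the full control effect; nearly all actives have a fitted effect of over 35% in size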
[2] = molecular target: Voltage-gated inwardly rectifying potassium channel KCNH2 (Homo sapiens) (UniProt Q12809); assay: qHTS Assay for Small Molecule Inhibitors of the Human hERG Channel Activity (AID 588834); conditions: U2OS BacMam hERG, FluxOR thallium flux fluorescence; at 46.1 µM (top of the series) unless noted;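 further: U2OS cells transduced with hERG by BacMam; top concentration of the series differs between compounds; on the % scale 0 is the no-effect control and ±100 the full control effect; lower thallium flux fluorescence means stronger hERG block; nearly all actives have a fitted effect of over 50% in size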
[3] = molecular target: Luciferin 4-monooxygenase (Photinus pyralis) (UniProt P08659); assay: Biochemical firefly luciferase enzyme assay for NPC (AID 624030);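 further: purified P. pyralis luciferase at 10 nM with luciferin and ATP substrate; 0% = DMSO and -100% = full luciferase inhibition by PTC124 control; nearly all actives have a fitted effect of over 70% in size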; conditions: purified P. pyralis luciferase, luminescence, 5 min; at 58.6 µM (top of the series) unless noted
How it was run: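 Direct inhibition of firefly luciferase enzyme (10 nM final, 50 mM Tris Acetate) assessed by luminescence within 5 minutes. Percent activity scaled between DMSO and PTC124 positive control, with concentration-effect curves classified by fit quality and response.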

Protein sequences, listed by entry. Tags and fused reporters are not part of them. Lines headed by an entry give the natural chain unless they say otherwise; changes in a name come on top.
UniProt O94782: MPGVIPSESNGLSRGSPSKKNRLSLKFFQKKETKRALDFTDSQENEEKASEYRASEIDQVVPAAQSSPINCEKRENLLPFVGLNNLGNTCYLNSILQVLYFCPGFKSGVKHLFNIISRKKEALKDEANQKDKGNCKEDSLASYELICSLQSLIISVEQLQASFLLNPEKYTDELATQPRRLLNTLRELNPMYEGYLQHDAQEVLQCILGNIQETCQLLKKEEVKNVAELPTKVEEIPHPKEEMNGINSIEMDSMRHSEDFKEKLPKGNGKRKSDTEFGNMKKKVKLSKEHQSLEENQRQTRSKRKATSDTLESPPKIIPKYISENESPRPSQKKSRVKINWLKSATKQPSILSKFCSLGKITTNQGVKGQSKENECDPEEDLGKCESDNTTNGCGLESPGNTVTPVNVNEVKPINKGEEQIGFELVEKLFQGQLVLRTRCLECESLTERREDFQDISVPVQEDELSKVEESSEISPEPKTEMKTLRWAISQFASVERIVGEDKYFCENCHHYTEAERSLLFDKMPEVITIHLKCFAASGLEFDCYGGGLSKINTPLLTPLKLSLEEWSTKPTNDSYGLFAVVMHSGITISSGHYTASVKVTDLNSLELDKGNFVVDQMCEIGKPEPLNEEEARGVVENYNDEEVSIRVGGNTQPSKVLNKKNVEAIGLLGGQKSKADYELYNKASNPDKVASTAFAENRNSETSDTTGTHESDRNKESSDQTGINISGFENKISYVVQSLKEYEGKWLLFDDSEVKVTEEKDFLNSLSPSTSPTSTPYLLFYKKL
UniProt Q12809: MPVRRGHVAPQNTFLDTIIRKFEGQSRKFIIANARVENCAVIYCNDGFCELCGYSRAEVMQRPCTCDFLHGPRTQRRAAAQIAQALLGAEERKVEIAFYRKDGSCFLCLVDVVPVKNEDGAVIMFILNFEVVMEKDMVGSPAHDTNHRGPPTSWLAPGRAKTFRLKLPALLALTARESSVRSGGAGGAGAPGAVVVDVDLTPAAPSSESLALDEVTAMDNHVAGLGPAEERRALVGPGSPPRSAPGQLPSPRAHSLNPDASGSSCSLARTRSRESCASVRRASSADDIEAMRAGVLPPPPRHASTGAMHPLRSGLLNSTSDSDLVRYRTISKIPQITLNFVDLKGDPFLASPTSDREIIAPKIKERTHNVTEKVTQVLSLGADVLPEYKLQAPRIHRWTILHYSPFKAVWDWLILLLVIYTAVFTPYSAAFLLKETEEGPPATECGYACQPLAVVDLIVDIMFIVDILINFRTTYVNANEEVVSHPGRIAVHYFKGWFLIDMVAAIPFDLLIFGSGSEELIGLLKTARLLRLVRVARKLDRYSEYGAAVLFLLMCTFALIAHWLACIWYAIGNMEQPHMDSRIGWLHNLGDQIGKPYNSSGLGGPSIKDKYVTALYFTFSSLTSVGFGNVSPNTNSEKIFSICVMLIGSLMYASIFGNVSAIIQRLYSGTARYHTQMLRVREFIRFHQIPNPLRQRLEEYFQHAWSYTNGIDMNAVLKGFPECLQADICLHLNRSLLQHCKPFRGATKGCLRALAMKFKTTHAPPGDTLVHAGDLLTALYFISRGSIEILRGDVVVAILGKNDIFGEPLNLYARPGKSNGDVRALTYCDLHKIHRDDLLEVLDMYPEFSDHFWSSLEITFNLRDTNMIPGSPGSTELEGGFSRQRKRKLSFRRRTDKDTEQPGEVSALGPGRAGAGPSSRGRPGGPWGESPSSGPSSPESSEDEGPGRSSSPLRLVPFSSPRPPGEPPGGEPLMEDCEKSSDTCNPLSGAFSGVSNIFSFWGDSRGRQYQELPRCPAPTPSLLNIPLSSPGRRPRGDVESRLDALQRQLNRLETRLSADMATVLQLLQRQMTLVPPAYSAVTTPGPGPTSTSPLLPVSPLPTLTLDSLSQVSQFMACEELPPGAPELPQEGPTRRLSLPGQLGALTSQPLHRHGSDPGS
UniProt P08659, whole entry, looked up: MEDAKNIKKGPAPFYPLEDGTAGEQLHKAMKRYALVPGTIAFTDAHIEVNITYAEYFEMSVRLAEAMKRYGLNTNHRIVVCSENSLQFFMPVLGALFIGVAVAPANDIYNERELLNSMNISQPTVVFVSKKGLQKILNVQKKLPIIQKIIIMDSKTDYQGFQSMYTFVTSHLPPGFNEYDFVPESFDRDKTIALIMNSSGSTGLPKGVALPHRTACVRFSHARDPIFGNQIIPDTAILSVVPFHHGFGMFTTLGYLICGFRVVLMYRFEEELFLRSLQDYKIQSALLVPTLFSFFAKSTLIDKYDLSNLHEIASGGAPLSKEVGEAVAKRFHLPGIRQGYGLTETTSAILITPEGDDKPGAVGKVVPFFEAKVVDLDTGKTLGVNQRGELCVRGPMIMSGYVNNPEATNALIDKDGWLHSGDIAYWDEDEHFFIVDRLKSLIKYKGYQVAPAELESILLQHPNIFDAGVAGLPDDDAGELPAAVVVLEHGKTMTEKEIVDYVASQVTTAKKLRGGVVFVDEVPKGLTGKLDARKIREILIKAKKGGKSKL
UniProt O15297: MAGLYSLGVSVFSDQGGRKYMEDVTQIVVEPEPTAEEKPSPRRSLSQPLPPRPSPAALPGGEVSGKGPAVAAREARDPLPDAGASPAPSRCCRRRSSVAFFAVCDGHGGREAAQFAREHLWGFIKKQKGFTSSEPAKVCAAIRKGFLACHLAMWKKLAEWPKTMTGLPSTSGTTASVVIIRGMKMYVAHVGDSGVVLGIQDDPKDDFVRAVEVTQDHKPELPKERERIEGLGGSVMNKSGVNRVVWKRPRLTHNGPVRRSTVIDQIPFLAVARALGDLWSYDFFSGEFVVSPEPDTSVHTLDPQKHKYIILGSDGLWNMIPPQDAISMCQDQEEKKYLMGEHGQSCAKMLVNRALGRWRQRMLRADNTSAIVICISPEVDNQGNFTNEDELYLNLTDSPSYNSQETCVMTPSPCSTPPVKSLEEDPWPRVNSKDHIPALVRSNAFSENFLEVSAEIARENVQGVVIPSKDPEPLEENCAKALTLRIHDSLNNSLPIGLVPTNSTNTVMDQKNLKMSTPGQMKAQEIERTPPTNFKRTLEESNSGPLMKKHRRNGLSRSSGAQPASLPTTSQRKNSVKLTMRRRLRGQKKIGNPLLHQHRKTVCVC

[4] = S16 Schwann cell viability assay (CellTiter-Glo assay) (AID 624031); conditions: S16 rat Schwann cells viability, 24 h; at 57.5 µM (top of the series);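 further: cellular ATP luminescence as a viability measure; plate controls were DMSO-treated cells for no effect and cell-free wells for full effect; nearly all actives have a fitted effect of over 70% in size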
How it was run: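 CellTiter-Glo ATP luminescence counter-screen in untransfected S16 rat Schwann cells, 24h compound exposure at 37 degree Celsius after overnight seeding (500-750 cells/well); response scaled between cell-free wells and DMSO (0% activity), curves classed by r2 and magnitude.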

[5] = S16 Schwann cell PMP22 intronic element firefly luciferase assay (AID 624032); conditions: S16 rat Schwann cells, PMP22 element FLuc, 24 h; at 57.5 µM (top of the series);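 further: plate controls were DMSO for no effect and PTC124 positive control mean for full effect; nearly all actives have a fitted effect of over 30% in size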
[6] = S16 Schwann cell PMP22 intronic element beta-lactamase assay (AID 624044; calls by dose curve;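 further: 0% = DMSO and -100% = potassium clavulanate positive control; nearly all actives have a fitted effect of over 15% in size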); conditions: S16 rat Schwann cells, PMP22 element beta-lactamase FRET, 24 h; at 38.3 µM (top of the series)
[7] = qHTS assay to identify small molecule inhibitors of chordoma cells - UCH-1 (AID 1259355); conditions: UCH-1 chordoma viability, CellTiter-Glo, 48 h, combination, with auranofin plus four topoisomerase inhibitors; at 46.1 µM (top of the series); further: on the % scale 0 is the no-effect control and ±100 the full control effect; nearly all actives have a fitted effect of over 55% in size
How it was run: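 Seed 800 cells per well; incubate overnight at 37 C, 5% CO2. Add test compounds (15 concentrations), then the auranofin–topoisomerase-agent combination. Incubate 48hr, add CellTiter-Glo, wait 30min, read luminescence.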

[8] = qHTS assay to identify small molecule inhibitors of chordoma cells - UCH-2 (AID 1259356); conditions: UCH-2 chordoma viability, CellTiter-Glo ATP luminescence, 48 h; at 46.1 µM (top of the series); further: on the % scale 0 is the no-effect control and ±100 the full control effect
[9] = P-glycoprotein substrates identified in KB-8-5-11 adenocarcinoma cell line, qHTS therapeutic library screen (AID 1346987); conditions: KB-8-5-11 (P-gp overexpressing) viability, CellTiter-Glo, 72 h; at 44.5 µM (top of the series) unless noted; further: on the % scale 0 is the no-effect control and ±100 the full control effect; nearly all actives have a fitted effect of over 65% in size
[10] = qHTS of pediatric cancer cell lines to identify multiple opportunities for drug repurposing: Primary screen for TC32 cells (AID 1347089); conditions: TC32 Ewing sarcoma viability, CellTiter-Glo luminescence, 48 h; at 45.8 µM (top of the series) unless noted; further: on the % scale 0 is the no-effect control and ±100 the full control effect; nearly all actives have a fitted effect of over 60% in size
[11] = qHTS of pediatric cancer cell lines to identify multiple opportunities for drug repurposing: Primary screen for DAOY cells (AID 1347090);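 further: plate controls were DMSO for no effect and bortezomib for full effect; nearly all actives have a fitted effect of over 55% in size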
[12] = qHTS of pediatric cancer cell lines to identify multiple opportunities for drug repurposing: Primary screen for SJ-GBM2 cells (AID 1347091); conditions: SJ-GBM2 viability, CellTiter-Glo luminescence, 48 h; at 46 µM (top of the series) unless noted;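 further: plate controls were DMSO neutral control for no effect and bortezomib for full effect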
[13] = qHTS of pediatric cancer cell lines to identify multiple opportunities for drug repurposing: Primary screen for A673 cells (AID 1347092); conditions: A673 Ewing sarcoma viability, CellTiter-Glo ATP luminescence, 48 h; at 46 µM (top of the series) unless noted; further: on the % scale 0 is the no-effect control and ±100 the full control effect; nearly all actives have a fitted effect of over 45% in size
[14] = qHTS of pediatric cancer cell lines to identify multiple opportunities for drug repurposing: Primary screen for SK-N-MC cells (AID 1347093); conditions: SK-N-MC viability, CellTiter-Glo luminescence, 48 h; at 46 µM (top of the series) unless noted;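 further: plate controls were DMSO neutral control for no effect and bortezomib for full effect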
[15] = qHTS of pediatric cancer cell lines to identify multiple opportunities for drug repurposing: Primary screen for BT-37 cells (AID 1347094); conditions: BT-37 viability, CellTiter-Glo luminescence, 48 h; at 57.3 µM (top of the series) unless noted;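 further: plate controls were DMSO for no effect and bortezomib for full effect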
[16] = qHTS of pediatric cancer cell lines to identify multiple opportunities for drug repurposing: Primary screen for NB-EBc1 cells (AID 1347095); conditions: NB-EBc1 neuroblastoma viability, CellTiter-Glo luminescence, 48 h; at 46 µM (top of the series) unless noted;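 further: plate controls were DMSO neutral control for no effect and bortezomib for full effect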
[17] = qHTS of pediatric cancer cell lines to identify multiple opportunities for drug repurposing: Primary screen for U-2 OS cells (AID 1347096); conditions: U-2 OS viability, CellTiter-Glo luminescence, 48 h; at 46 µM (top of the series) unless noted;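 further: plate controls were DMSO wells for no effect and bortezomib positive control wells for full effect; nearly all actives have a fitted effect of over 50% in size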
[18] = qHTS of pediatric cancer cell lines to identify multiple opportunities for drug repurposing: Primary screen for Saos-2 cells (AID 1347097); conditions: Saos-2 viability, CellTiter-Glo ATP luminescence, 48 h; at 46 µM (top of the series) unless noted; further: on the % scale 0 is the no-effect control and ±100 the full control effect; nearly all actives have a fitted effect of over 40% in size
[19] = qHTS of pediatric cancer cell lines to identify multiple opportunities for drug repurposing: Primary screen for SK-N-SH cells (AID 1347098); conditions: SK-N-SH viability, CellTiter-Glo luminescence, 48 h; at 57 µM (top of the series) unless noted;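 further: DMSO served as neutral control and bortezomib at 2.3 µM as positive control; on the % scale 0 is the no-effect control and ±100 the full control effect; nearly all actives have a fitted effect of over 65% in size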
[20] = qHTS of pediatric cancer cell lines to identify multiple opportunities for drug repurposing: Primary screen for NB1643 cells (AID 1347099); conditions: NB1643 neuroblastoma viability, CellTiter-Glo luminescence, 48 h; at 46 µM (top of the series) unless noted;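 further: plate controls were DMSO neutral control for no effect and bortezomib positive control for full effect; nearly all actives have a fitted effect of over 50% in size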
[21] = qHTS of pediatric cancer cell lines to identify multiple opportunities for drug repurposing: Primary screen for BT-12 cells (AID 1347101);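 further: plate controls were DMSO for no effect and bortezomib positive control for full effect; nearly all actives have a fitted effect of over 25% in size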
[22] = qHTS of pediatric cancer cell lines to identify multiple opportunities for drug repurposing: Primary screen for Rh18 cells (AID 1347102); conditions: Rh18 rhabdomyosarcoma viability, CellTiter-Glo luminescence, 48 h; at 46 µM (top of the series) unless noted; further: on the % scale 0 is the no-effect control and ±100 the full control effect; nearly all actives have a fitted effect of over 65% in size
[23] = qHTS of pediatric cancer cell lines to identify multiple opportunities for drug repurposing: Primary screen for OHS-50 cells (AID 1347103);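 further: plate controls were DMSO neutral control for no effect and bortezomib positive control for full effect; nearly all actives have a fitted effect of over 40% in size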
[24] = qHTS of pediatric cancer cell lines to identify multiple opportunities for drug repurposing: Primary screen for RD cells (AID 1347104); conditions: RD rhabdomyosarcoma viability, CellTiter-Glo luminescence, 48 h; at 46 µM (top of the series) unless noted;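 further: plate controls were DMSO for no effect and bortezomib for full effect; nearly all actives have a fitted effect of over 55% in size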
[25] = qHTS of pediatric cancer cell lines to identify multiple opportunities for drug repurposing: Primary screen for MG 63 (6-TG R) cells (AID 1347105); conditions: MG 63 (6-TG R) viability, CellTiter-Glo, 48 h; at 46 µM (top of the series) unless noted; further: on the % scale 0 is the no-effect control and ±100 the full control effect; nearly all actives have a fitted effect of over 50% in size
[26] = qHTS of pediatric cancer cell lines to identify multiple opportunities for drug repurposing: Primary screen for control Hh wild type fibroblast cells (AID 1347106); conditions: Hh wild-type fibroblast viability, CellTiter-Glo luminescence, 48 h; at 46 µM (top of the series) unless noted;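 further: on the % scale 0 is the no-effect control and ±100 the full control effect; a drop in luminescence marks cytotoxicity and a rise apparent proliferation; nearly all actives have a fitted effect of over 55% in size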
[27] = qHTS of pediatric cancer cell lines to identify multiple opportunities for drug repurposing: Primary screen for Rh30 cells (AID 1347107); conditions: Rh30 rhabdomyosarcoma viability, CellTiter-Glo luminescence, 48 h; at 46 µM (top of the series) unless noted
[28] = qHTS of pediatric cancer cell lines to identify multiple opportunities for drug repurposing: Primary screen for Rh41 cells (AID 1347108); conditions: Rh41 rhabdomyosarcoma viability, CellTiter-Glo luminescence, 48 h; at 46 µM (top of the series) unless noted
[29] = qHTS to identify inhibitors of the type 1 interferon - major histocompatibility complex class I in skeletal muscle: primary screen against the NCATS Pharmaceutical Collection (AID 1347407); conditions: human skeletal muscle cells, IFN-b-induced MHC-I HiBiT luminescence, 24 h; at 45.9 µM (top of the series) unless noted
How it was run: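 HLA-B HiBiT myoblasts, dexamethasone-free growth medium + 4 ng/ml IFN-b; compounds pinned 1 h after seeding, […] from 46 uM; 24 h, 37 C, 5% CO2; lytic HiBiT detection, 10 min RT, luminescence.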

[30] = molecular target: Protein phosphatase 1D (Homo sapiens) (UniProt O15297); assay: RapidFire Mass Spectrometry qHTS Assay for Modulators of WT P53-Induced Phosphatase 1 (WIP1) (AID 1347424); conditions: WIP1 dephosphorylation of phosphopeptide, RapidFire MS; at 63 µM (top of the series) unless noted
How it was run: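 10 nM WIP1 + cpd, 1 h RT; + 2 uM VEPPL-pS-QETFS, 5 min RT; stop 0.5% formic acid; labelled product standard 1 uM; RapidFire MS. Buffer 50 mM Tris pH 7.5, 30 mM MgCl2, 1 mM TCEP.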

CN(C(=O)Cc1ccccc1)[C@H]1CC[C@@]2(CCCO2)C[C@@H]1N1CCCC1
inactive: activity change, negative = inhibition [1] -7.38% | activity change, negative = inhibition [2] -8.87% | activity change, negative = inhibition [3] -0.447% | activity change, negative = cytotoxicity [4] -9.73% | activity change, negative = inhibition [5] -29.9% | ratio activity, negative = inhibition [6] 2.13% | activity, negative = inhibition [7] -0.118% | activity change, negative = inhibition [8] 12.1% | activity change, negative = cytotoxicity [9] -9.94% | activity change, negative = cytotoxic [10] 1.15% | Potency [11] | activity change, negative = cytotoxic [12] 16.4% | activity change, negative = cytotoxic [13] -23.2% | activity change, negative = cytotoxic [14] -3.71% | activity change, negative = cytotoxic [15] -2.62% | activity change, negative = cytotoxic [16] -0.669% | activity change, negative = cytotoxic [17] 2.44% | activity change, negative = cytotoxic [18] 4.9% | activity change, negative = cytotoxic [19] -21.3% | activity change, negative = cytotoxic [20] 16.1% | Potency [21] | activity change, negative = cytotoxic [22] -10% | Potency [23] | activity change, negative = cytotoxic [24] -1.88% | activity change, negative = cytotoxic [25] -7.81% | activity change, negative = cytotoxic [26] 12.8% | activity change, negative = cytotoxic [27] 10.7% | activity change, negative = cytotoxic [28] 13% | activity change, negative = inhibition [29] -10.3% | activity change, negative = inhibition [30] 3.94%

From PubChem BioAssay (NCATS)
